# What was measured:
# pERK in H358 cells = assay: pERK inhibition in H358 cells; conditions: read-out: Cellular pERK inhibition, 4 hours treatment
# How it was run: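 Human lung cancer H358 cells in RPMI/10% FBS were exposed to compound or DMSO for 4 h. Fixed and permeabilized cells were stained overnight at 4 C with anti-phospho-ERK1/2 (Thr202/Tyr204). Near-infrared imaging read the pERK signal at 800 nm, with DRAQ5 at 700 nm.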
# cyclophilin A (CYPA) = cyclophilin A (CYPA) (Homo sapiens, UniProt P62937); assay: CYPA-compound binary complex formation by SPR; conditions: read-out: CYPA Binding Affinity
# How it was run: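 CypA-Avi captured on a Biotin CAPture chip (4 μg/ml), reference flow cell subtracted. Compounds injected as 10-point 2-fold dilutions from 50 μM in HBS-P+ pH7.4 with 2% DMSO; 60 s association and 60 s dissociation, solvent-corrected. Affinity obtained by steady-state fitting.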
# [1] = molecular target: BRAF-GTP-KRAS-G12C complex (Homo sapiens, UniProt P01116+P62937, G12C); assay: KRAS-BRAF complex disruption through competition with CYPA-compound by TR-FRET; conditions: read-out: BRAF-GTP-KRAS-G12C Disruption; biochemical BRAF-KRAS G12C-GTP disruption assay EC50, with CYPA
# How it was run: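 His6-KRAS G12C-GTP (1-169, 50 nM) with tagless CypA (1-165, 500 nM) was incubated with compound for 3 h at room temperature in pH 7.3 Hepes/NaCl/MgCl2 buffer containing GST-BRAF RBD. Anti-His Eu (10 nM) and anti-GST APC (50 nM) were then added for 1.5 h, and the 665/615 nm TR-FRET ratio was read. EC50 from 4-parameter fit; for specificity, wild-type KRAS replaced G12C, and CypA was omitted to test presenter dependence.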
Structure (SMILES),IC50 (pERK in H358 cells) [µM],Kd (cyclophilin A (CYPA)) [µM],EC50 [1] [µM]
CC(C)[C@@H](C(=O)N[C@H]1Cc2cc(O)cc(c2)-c2ccc3c(C4CC4)c(C#N)n(c3c2)C[C@H](C)COC(=O)[C@@H]2CCCN(N2)C1=O)N(C)C(=O)C1CN(C(=O)[C@@H](C)Cl)C1,1 to 10,5 to 15,0.5 to 5
CC(C)[C@@H](C(=O)N[C@H]1Cc2cc(O)cc(c2)-c2ccc3c(-c4ccccc4[N+](=O)[O-])cn(c3c2)CC(C)(C)COC(=O)[C@@H]2CCCN(N2)C1=O)N(C)C(=O)C1CN(C(=O)[C@@H](C)Cl)C1,> 10,< 5,0.5 to 5
C=CC(=O)N1CCCC1C(=O)N(C)C(C(=O)NC1Cc2cc(O)cc(c2)-c2ccc3cc(C)n(c3c2)CC(C)(C)COC(=O)C2CCCN(N2)C1=O)C(C)C (stereo not drawn),> 10,> 15,> 5
CC(C)[C@@H](C(=O)N[C@H]1Cc2cc(O)cc(c2)-c2ccc3c(c2)N(C[C@H](C)COC(=O)[C@@H]2CCCN(N2)C1=O)C(=O)C3(C)C)N(C)C(=O)C1CN(C(=O)CCl)C1,1 to 10,< 5,< 0.5
COc1ccc(C[C@H](NC(=O)C2CN(C(=O)CCl)C2)C(=O)N[C@H]2Cc3cc(O)cc(c3)-c3ccc4c(C#N)cn(c4c3)CC(C)(C)COC(=O)[C@@H]3CCCN(N3)C2=O)cc1,> 10,> 15,> 5
CN(C(=O)C1CN(C(=O)CCl)C1)[C@@H](CC1CCCC1)C(=O)N[C@H]1Cc2cc(O)cc(c2)-c2ccc3c(C(C)(C)C#N)cn(c3c2)CC(C)(C)COC(=O)[C@@H]2CCCN(N2)C1=O,> 10,< 5,0.5 to 5
C=CC(=O)N1CC[C@H](C(=O)N(C)[C@H](C(=O)N[C@H]2Cc3cc(O)cc(c3)-c3ccc4c(-c5ccc(Cl)cc5C#N)cn(c4c3)CC(C)(C)COC(=O)[C@@H]3CCCN(N3)C2=O)C(C)C)C1,1 to 10,5 to 15,0.5 to 5
CC(C)[C@@H](C(=O)N[C@H]1Cc2cc(O)cc(c2)-c2ccc3c(-c4ccccc4OC4CCCC4)cn(c3c2)CC(C)(C)COC(=O)[C@@H]2CCCN(N2)C1=O)N(C)C(=O)C1CN(C(=O)CCl)C1,1 to 10,> 15,< 0.5
CC1COC(=O)[C@@H]2CCCN(N2)C(=O)[C@@H](NC(=O)[C@H](C(C)C)N(C)C(=O)C2CN(C(=O)CCl)C2)Cc2cc(O)cc(c2)-c2ccc3c(-c4ccc(C#N)cc4)cn(c3c2)C1 (stereo partly drawn),1 to 10,5 to 15,< 0.5
CC(C)[C@@H](C(=O)N[C@H]1Cc2cc(O)cc(c2)-c2ccc3c(C(C)(C)C#N)cn(c3c2)CC(C2CC2)COC(=O)[C@@H]2CCCN(N2)C1=O)N(C)C(=O)C1CN(C(=O)CCl)C1 (stereo partly drawn),< 1,< 5,< 0.5
"COCC1COC(=O)[C@@H]2CCCN(N2)C(=O)[C@@H](NC(=O)[C@H](C(C)C)N(C)C(=O)C2CN(C(=O)CCl)C2)Cc2cc(O)cc(c2)-c2ccc3c(C(C)(C)C#N)cn(c3c2)C1 (single isomer, unassigned)",> 10,> 15,< 0.5
C=CC(=O)N1CC2(C(=O)N(C)[C@H](C(=O)N[C@H]3Cc4cc(O)cc(c4)-c4ccc5c(C(C)(C)C#N)cn(c5c4)CC(C)(C)COC(=O)[C@@H]4CCCN(N4)C3=O)C(C)C)CC1C2,> 10,5 to 15,0.5 to 5
"C=CC(=O)N1CCCC2(CCN([C@H](C(=O)N[C@H]3Cc4cc(O)cc(c4)-c4ccc5c(C(C)(C)C#N)cn(c5c4)CC(C)(C)COC(=O)[C@@H]4CCCN(N4)C3=O)C(C)C)C2=O)C1 (single isomer, unassigned) [333]",> 10,< 5,> 5
CCC(C)C(C(=O)NC1Cc2cc(O)cc(c2)-c2ccc3c(C(C)(C)C#N)cn(c3c2)CC(C)(C)COC(=O)C2CCCN(N2)C1=O)N(C)C(=O)C1CN(C(=O)CCl)C1 (stereo not drawn),1 to 10,5 to 15,< 0.5
C=CC(=O)N1CC(C(=O)N(C)[C@H](C(=O)N[C@H]2Cc3cc(O)cc(c3)-c3ccc4c(c3)n(c(=O)n4C3CC3)C[C@H](C)COC(=O)[C@@H]3CCCN(N3)C2=O)C(C)C)C1,> 10,5 to 15,0.5 to 5
"CC(C)[C@@H](C(=O)N[C@H]1Cc2cc(O)cc(c2)-c2ccc3c(C(C)(C)C#N)cn(c3c2)CC(Cl)COC(=O)[C@@H]2CCCN(N2)C1=O)N(C)C(=O)C1CN(C(=O)CCl)C1 (single isomer, unassigned)",1 to 10,5 to 15,< 0.5
CC(C)[C@@H](C(=O)N[C@H]1Cc2cc(O)cc(c2)-c2ccc3c(C4CC4)c(C#N)n(c3c2)CC(C)(C)COC(=O)[C@@H]2CCCN(N2)C1=O)N(C)C(=O)C1CN(C(=O)CCl)C1,< 1,> 15,< 0.5

Structure (SMILES),IC50 (pERK in H358 cells) [µM],Kd (cyclophilin A (CYPA)) [µM],EC50 [1] [µM]
CC(C)[C@@H](C(=O)N[C@H]1Cc2cc(O)cc(c2)-c2ccc3c(-c4ccccc4Oc4ccccc4)cn(c3c2)CC(C)(C)COC(=O)[C@@H]2CCCN(N2)C1=O)N(C)C(=O)C1CN(C(=O)CCl)C1,1 to 10,> 15,< 0.5
CC(C)[C@@H](C(=O)N[C@H]1Cc2cc(O)cc(c2)-c2ccc3c(CC4CCOC4)cn(c3c2)C[C@H](C)COC(=O)[C@@H]2CCCN(N2)C1=O)N(C)C(=O)C1CN(C(=O)CCl)C1 (stereo partly drawn),< 1,< 5,< 0.5
C=CC(=O)N1CC[C@H](C(=O)N(C)[C@H](C(=O)N[C@H]2Cc3cc(O)cc(c3)-c3ccc4c(-c5c(C#N)cccc5OC5CCOCC5)cn(c4c3)CC(C)(C)COC(=O)[C@@H]3CCCN(N3)C2=O)C(C)C)C1,1 to 10,> 15,< 0.5
CC(C)[C@@H](C(=O)N[C@H]1Cc2cc(O)cc(c2)-c2ccc3c(Cc4ccncc4)cn(c3c2)C[C@H](C)COC(=O)[C@@H]2CCCN(N2)C1=O)N(C)C(=O)C1CN(C(=O)CCl)C1,1 to 10,< 5,< 0.5
C=CC(=O)N1CC[C@H](C(=O)N(C)[C@H](C(=O)N[C@H]2Cc3cc(O)cc(c3)-c3ccc4c(c3)c(cn4C(C)(C#N)CCOC)CC(C)(C)COC(=O)[C@@H]3CCCN(N3)C2=O)C(C)C)C1 (stereo partly drawn),< 1,> 15,0.5 to 5
C=CC(=O)N1CCC(C(=O)N(C)[C@H](C(=O)N[C@H]2Cc3cc(O)cc(c3)-c3ccc4c(C(C)(C)C#N)cn(c4c3)CC(C)(C)COC(=O)[C@@H]3CCCN(N3)C2=O)C(C)C)CC1,> 10,> 15,0.5 to 5
"C=CC(=O)N1CCCC2(CCN([C@H](C(=O)N[C@H]3Cc4cc(O)cc(c4)-c4ccc5c(C(C)(C)C#N)cn(c5c4)CC(C)(C)COC(=O)[C@@H]4CCCN(N4)C3=O)C(C)C)C2=O)C1 (single isomer, unassigned) [332]",> 10,5 to 15,> 5
C=CC(=O)N1CC[C@H](C(=O)N(C)[C@H](C(=O)N[C@H]2Cc3cc(O)cc(c3)-c3ccc4c(c3)c(cn4C(C)(C)C#N)CC(C)(C)COC(=O)[C@@H]3CCCN(N3)C2=O)C2CCC2)C1,1 to 10,5 to 15,0.5 to 5
CC(C)[C@@H](C(=O)N[C@H]1Cc2cc(O)cc(c2)-c2ccc3c(c2)N(CC(C)(C)COC(=O)[C@@H]2CCCN(N2)C1=O)CC31CCOCC1)N(C)C(=O)C1CN(C(=O)CCl)C1,< 1,5 to 15,< 0.5
"CC(C)[C@@H](C(=O)N[C@H]1Cc2cc(O)cc(c2)-c2ccc3c4c(n(c3c2)C[C@H](C)COC(=O)[C@@H]2CCCN(N2)C1=O)COCC4(C)C#N)N(C)C(=O)C1CN(C(=O)CCl)C1 (single isomer, unassigned) [63]",< 1,5 to 15,< 0.5
C=CC(=O)N1CCC(F)(C(=O)N(C)[C@H](C(=O)N[C@H]2Cc3cc(O)cc(c3)-c3ccc4c(C(C)(C)C#N)cn(c4c3)CC(C)(C)COC(=O)[C@@H]3CCCN(N3)C2=O)C(C)C)CC1,< 1,5 to 15,0.5 to 5
CC(C)[C@@H](C(=O)N[C@H]1Cc2cc(O)cc(c2)-c2ccc3c(C(C)(C)C#N)cn(c3c2)CC(C)(C)COC(=O)[C@@H]2CCCN(N2)C1=O)N(C)C(=O)[C@H]1CCN(C(=O)[C@@H](C)Cl)C1,1 to 10,< 5,0.5 to 5
COc1cccc(-c2cn3c4cc(ccc24)-c2cc(O)cc(c2)C[C@H](NC(=O)[C@H](C(C)C)N(C)C(=O)C2CN(C(=O)CCl)C2)C(=O)N2CCC[C@H](N2)C(=O)OCC(C)C3)c1 (stereo partly drawn),1 to 10,> 15,< 0.5
CC(C)[C@@H](C(=O)N[C@H]1Cc2cc(O)cc(c2)-c2ccc3c(-c4ccc5ncsc5c4)cn(c3c2)CC(C)(C)COC(=O)[C@@H]2CCCN(N2)C1=O)N(C)C(=O)C1CN(C(=O)CCl)C1,> 10,< 5,< 0.5
CC(C)[C@@H](C(=O)N[C@H]1Cc2cc(O)cc(c2)-c2ccc3c(-c4ccccc4C#N)c(C#N)n(c3c2)CC(C)(C)COC(=O)[C@@H]2CCCN(N2)C1=O)N(C)C(=O)C1CN(C(=O)[C@@H](C)Cl)C1,1 to 10,< 5,< 0.5
CC#CC(=O)N1CCCC1C(=O)N(C)C(C(=O)NC1Cc2cc(O)cc(c2)-c2ccc3c(C#N)c(C)n(c3c2)CC(C)(C)COC(=O)C2CCCN(N2)C1=O)C(C)C (stereo not drawn),> 10,> 15,> 5

# — patent publication US20240139185A1, “COMPOUNDS THAT PARTICIPATE IN COOPERATIVE BINDING AND USES THEREOF” (Revolution Medicines, Inc., priority 2018, published 2024)
